Test [1] deals with T1, human GITR on cells (human, UniProt Q9Y5U5 26-241).
T1 sequence (looked up): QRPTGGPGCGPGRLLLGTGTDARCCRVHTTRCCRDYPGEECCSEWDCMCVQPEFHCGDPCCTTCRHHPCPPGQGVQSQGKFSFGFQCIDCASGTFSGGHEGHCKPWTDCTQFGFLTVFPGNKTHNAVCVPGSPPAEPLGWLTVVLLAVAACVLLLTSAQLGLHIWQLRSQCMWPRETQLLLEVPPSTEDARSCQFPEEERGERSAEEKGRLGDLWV
In words: cell-based or functional assay.

Test [2] addresses T2, human GITR (human, UniProt Q9Y5U5 26-241).
T2 sequence (looked up): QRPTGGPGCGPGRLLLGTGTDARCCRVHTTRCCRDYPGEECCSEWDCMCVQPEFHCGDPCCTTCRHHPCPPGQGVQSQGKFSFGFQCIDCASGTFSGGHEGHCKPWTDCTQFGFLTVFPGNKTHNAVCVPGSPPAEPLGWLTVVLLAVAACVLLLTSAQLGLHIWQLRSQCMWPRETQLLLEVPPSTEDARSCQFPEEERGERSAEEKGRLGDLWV
As to the kind of experiment: cell-based or functional assay.

B1: anti-GITR-IgG2-IgG1 (antibody)
heavy: QVQLVESGGGVVQPGRSLRLSCAASGFTFSSYGMHWVRQAPGKGLEWVAVIWYEGSNKYYADSVKGRFTISRDNSKNTLYLQMNSLRAEDTAVYYCARGGSMVRGDYYYGMDVWGQGTTVTVSSASTKGPSVFPLAPCSRSTSESTAALGCLVKDYFPEPVTVSWNSGALTSGVHTFPAVLQSSGLYSLSSVVTVPSSNFGTQTYTCNVDHKPSNTKVDKTVERKCCVE[left out - human IgG1 Fc]
light: AIQLTQSPSSLSASVGDRVTITCRASQGISSALAWYQQKPGKAPKLLIYDASSLESGVPSRFSGSGSGTDFTLTISSLQPEDFATYYCQQFNSYPYTFGQGTKLEIKRTVAAPSVFIFPPSDEQLKSGTASVVCLLNNFYPREAKVQWKVDNALQSGNSQESVTEQDSKDSTYSLSSTLTLSKADYEKHKVYACEVTHQGLSSPVTKSFNRGEC
For B1, the “NFKB signaling EC50” value in test [1] is approximately 10 nM.

B2: anti-GITR-IgG1 (antibody)
heavy: QVQLVESGGGVVQPGRSLRLSCAASGFTFSSYGMHWVRQAPGKGLEWVAVIWYEGSNKYYADSVKGRFTISRDNSKNTLYLQMNSLRAEDTAVYYCARGGSMVRGDYYYGMDVWGQGTTVTVSSASTKGPSVFPLAPSSKSTSGGTAALGCLVKDYFPEPVTVSWNSGALTSGVHTFPAVLQSSGLYSLSSVVTVPSSSLGTQTYICNVNHKPSNTKVDKKV[left out - human IgG1 Fc]
light: AIQLTQSPSSLSASVGDRVTITCRASQGISSALAWYQQKPGKAPKLLIYDASSLESGVPSRFSGSGSGTDFTLTISSLQPEDFATYYCQQFNSYPYTFGQGTKLEIKRTVAAPSVFIFPPSDEQLKSGTASVVCLLNNFYPREAKVQWKVDNALQSGNSQESVTEQDSKDSTYSLSSTLTLSKADYEKHKVYACEVTHQGLSSPVTKSFNRGEC
B2: the “NFKB signaling EC50” value in test [1] is approximately 10 nM.

B3: GITR.6-IgG1f (antibody)
heavy: QVQLVESGGGVVQPGRSLRLSCAASGFTFSSYGMHWVRQAPGKGLEWVAVIWYEGSNKYYADSVKGRFTISRDNSKNTLYLQMNSLRAEDTAVYYCARGGSMVRGDYYYGMDVWGQGTTVTVSSASTKGPSVFPLAPSSKSTSGGTAALGCLVKDYFPEPVTVSWNSGALTSGVHTFPAVLQSSGLYSLSSVVTVPSSSLGTQTYICNVNHKPSNTKVDKRV[left out - human IgG1 Fc]
light: AIQLTQSPSSLSASVGDRVTITCRASQGISSALAWYQQKPGKAPKLLIYDASSLESGVPSRFSGSGSGTDFTLTISSLQPEDFATYYCQQFNSYPYTFGQGTKLEIKRTVAAPSVFIFPPSDEQLKSGTASVVCLLNNFYPREAKVQWKVDNALQSGNSQESVTEQDSKDSTYSLSSTLTLSKADYEKHKVYACEVTHQGLSSPVTKSFNRGEC
Turning to B3, in test [2], the “NFKB signaling (phospho-p65), CD4+ T cells, EC50” value came to 7.3 nM and the “NFKB signaling (phospho-p65), CD8+ T cells, EC50” value came out at 20.1 nM.

B4: GITR.6.G2.G1f (antibody, human IgG2, kappa)
heavy: QVQLVESGGGVVQPGRSLRLSCAASGFTFSSYGMHWVRQAPGKGLEWVAVIWYEGSNKYYADSVKGRFTISRDNSKNTLYLQMNSLRAEDTAVYYCARGGSMVRGDYYYGMDVWGQGTTVTVSSASTKGPSVFPLAPCSRSTSESTAALGCLVKDYFPEPVTVSWNSGALTSGVHTFPAVLQSSGLYSLSSVVTVPSSNFGTQTYTCNVDHKPSNTKVDKTVERKCCVE[left out - human IgG1 Fc]
light: AIQLTQSPSSLSASVGDRVTITCRASQGISSALAWYQQKPGKAPKLLIYDASSLESGVPSRFSGSGSGTDFTLTISSLQPEDFATYYCQQFNSYPYTFGQGTKLEIKRTVAAPSVFIFPPSDEQLKSGTASVVCLLNNFYPREAKVQWKVDNALQSGNSQESVTEQDSKDSTYSLSSTLTLSKADYEKHKVYACEVTHQGLSSPVTKSFNRGEC
As to B4, in test [2], the “NFKB signaling (phospho-p65), CD4+ T cells, EC50” value came out at 9 nM; the “NFKB signaling (phospho-p65), CD4+ T cells, Emax” value stood at 100%; the “NFKB signaling (phospho-p65), CD8+ T cells, EC50” value was found to be 3.77 nM; the “NFKB signaling (phospho-p65), CD8+ T cells, Emax” value was 92%.

The record behind these values is patent US20240141059A1 (Bristol-Myers Squibb, published 2024).
